{"sequences": {"note": "By UniProt entry, the sequences of proteins in these tests, tags left out. Residues count along the entry.", "UniProt Q7RTX0, 21-852 C757R": "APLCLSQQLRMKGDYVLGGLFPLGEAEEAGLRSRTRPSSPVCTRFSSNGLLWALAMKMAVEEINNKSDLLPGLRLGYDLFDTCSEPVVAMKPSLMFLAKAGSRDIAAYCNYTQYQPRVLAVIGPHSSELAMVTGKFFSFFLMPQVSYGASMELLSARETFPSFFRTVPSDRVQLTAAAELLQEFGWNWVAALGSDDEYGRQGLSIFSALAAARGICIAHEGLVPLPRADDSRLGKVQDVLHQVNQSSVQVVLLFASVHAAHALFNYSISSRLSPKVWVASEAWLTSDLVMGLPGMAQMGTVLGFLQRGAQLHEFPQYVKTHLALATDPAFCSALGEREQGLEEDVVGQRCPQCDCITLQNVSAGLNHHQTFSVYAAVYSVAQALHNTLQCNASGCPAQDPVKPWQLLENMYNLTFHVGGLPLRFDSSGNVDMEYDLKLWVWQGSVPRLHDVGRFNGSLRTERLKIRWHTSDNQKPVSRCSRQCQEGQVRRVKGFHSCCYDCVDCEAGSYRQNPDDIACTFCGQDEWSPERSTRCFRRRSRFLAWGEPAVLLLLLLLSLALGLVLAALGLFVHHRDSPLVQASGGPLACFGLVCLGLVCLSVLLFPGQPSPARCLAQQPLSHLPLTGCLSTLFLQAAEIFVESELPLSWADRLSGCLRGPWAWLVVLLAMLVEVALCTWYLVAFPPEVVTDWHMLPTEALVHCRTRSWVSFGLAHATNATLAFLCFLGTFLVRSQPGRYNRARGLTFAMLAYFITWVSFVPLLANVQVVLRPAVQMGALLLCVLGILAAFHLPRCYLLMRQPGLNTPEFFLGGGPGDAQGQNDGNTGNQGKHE", "UniProt Q7RTX1, 21-841": "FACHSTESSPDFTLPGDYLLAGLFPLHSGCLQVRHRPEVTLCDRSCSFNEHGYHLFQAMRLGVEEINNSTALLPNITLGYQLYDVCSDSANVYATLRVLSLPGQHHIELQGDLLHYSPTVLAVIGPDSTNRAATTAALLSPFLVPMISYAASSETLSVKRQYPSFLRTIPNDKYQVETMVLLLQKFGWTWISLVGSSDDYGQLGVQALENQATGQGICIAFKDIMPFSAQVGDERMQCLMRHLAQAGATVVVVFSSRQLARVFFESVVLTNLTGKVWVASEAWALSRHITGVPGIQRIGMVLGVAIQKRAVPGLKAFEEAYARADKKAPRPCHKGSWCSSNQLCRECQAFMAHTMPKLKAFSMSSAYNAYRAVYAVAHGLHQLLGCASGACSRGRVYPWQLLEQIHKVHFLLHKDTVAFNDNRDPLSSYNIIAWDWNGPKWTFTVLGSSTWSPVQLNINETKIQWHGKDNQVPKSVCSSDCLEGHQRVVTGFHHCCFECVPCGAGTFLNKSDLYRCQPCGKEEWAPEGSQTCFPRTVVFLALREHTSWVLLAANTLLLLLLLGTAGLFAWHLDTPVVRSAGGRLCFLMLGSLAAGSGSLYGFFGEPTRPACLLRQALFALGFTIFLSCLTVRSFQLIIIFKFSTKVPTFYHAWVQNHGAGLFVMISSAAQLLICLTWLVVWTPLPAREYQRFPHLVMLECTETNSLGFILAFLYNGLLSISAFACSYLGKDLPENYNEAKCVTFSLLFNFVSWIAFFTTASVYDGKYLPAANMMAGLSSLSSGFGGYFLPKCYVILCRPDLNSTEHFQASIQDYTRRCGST"}, "source": "patent US9459250B2", "about": "“Use of T1R3 venus flytrap region polypeptide to screen for taste modulators” (SENOMYX, INC., priority 2003, dated 2016)", "key": {"T1R1/T1R3": {"target": "T1R1/T1R3 (Homo sapiens (Human), UniProt Q7RTX0+Q7RTX1)", "assay": "FLIPR dose responses of human T1R1/T1R3 stable cell line with modulators", "type": "cell-based", "conditions": "cyclamate 8 mM, in the presence or absence of IMP", "from_the_text": "(§1) “Detection thresholds” are defined as the lower limit of detectable tastants. The detection threshold values were averaged over four trials for three subjects. […] The activities in B, C, E and F represent the mean±SE of fold increases in fluorescence intensities for four recorded wells. The dose-responses in B, C, E and F were reproduced at least 6 times independently.\nHuman cell lines that stably co-express human T1R2/T1R3 or human T1R1/T1R3 were generated by transfecting linearized PEAK10-derived (Edge Biosystems) vectors and pcDNA 3.1/ZEO-derived (Invitrogen) vectors respectively containing hT1R1 or hT1R2 expression construct (plasmid SAV2485 for T1R1, SAV2486 for T1R2) and hT1R3 (plasmid SXV550 for T1R3) into a Gα15 expressing cell line. […] Following SAV2485/SXV550 and SAV2486/SXV550 transfections, puromycin-resistant and zeocin-resistant colonies were selected, expanded, and tested by calcium imaging for responses to sweet or umami taste stimuli. Cells were selected in 0.0005 mg/ml puromycin (CALBIOCHEM) and 0.1 mg/ml zeocin (Invitrogen) at 37° C. in low-glucose DMEM supplemented with GlutaMAX, 10% dialyzed FBS, and 0.003 mg/ml blasticidin. Resistant colonies were expanded, and their responses to sweet taste stimuli evaluated by Fluorescence microscopy. […]"}, "[1]": {"tested_on": "endogenous muscarinic acetylcholine receptor", "assay": "Endogenous muscarinic acetylcholine receptor response in HEK cells", "type": "cell-based", "conditions": "carbachol", "from_the_text": "as §1"}}, "data": [{"compound": "O=S(=O)(O)NC1CCCCC1", "note": "[cyclamate]", "values": [{"measurement": "left-shift of dose-response curves for L-glutamate", "setting": "T1R1/T1R3", "value": "~2", "unit": "fold"}, {"measurement": "effect on endogenous muscarinic acetylcholine receptor response", "setting": "[1]", "value": "no effect"}]}]}
